Experimental data as given in patent publication US8440810B2, “Riboswitches, methods for their use, and compositions for use with riboswitches” (Yale University, priority 2002, dated 2013).

Experiments:
[1] = tested on: ydhL RNA from B. subtilis and the two add RNAs from C. perfringens and V. vulnificus; assay: In-line probing of the three G box RNAs that carry the C to U mutation; settings: 1 μM ligand
[2] = tested on: 93 xpt RNA (C to U mutation at position 74); assay: In-line probing and equilibrium dialysis of 93 xpt C to U mutant; type: binding, B. subtilis
[3] = tested on: 80 ydhL RNA (U to C mutation); assay: In-line probing and equilibrium dialysis of 80 ydhL U to C mutant

## Nc1ncnc2nc[nH]c12 [adenine]
[1]
  structural modulation: exhibit structural modulation only when incubated in the presence of adenine

## Nc1nc2nc[nH]c2c(=O)[nH]1 [guanine]
[2]
  structural modulation and binding in equilibrium dialysis: no longer is responsive to guanine
[3]
  affinity poorer than that of 93 xpt: at least 10 fold
  binding specificity: alters binding specificity to guanine
[1]
  structural modulation: do not respond to guanine
